The text below walks through data of patent US20100130604A1, “USE OF ROSMARINIC ACID IN MANUFACTURE OF MEDICAMENTS FOR TREATING OR PREVENTING HEPATIC AND RENAL DISEASES” (SHANGDONG LUYE NATURAL DRUG RESEARCH AND DEVELOPMENT CO., …, priority 2006, published 2010).

The test system of this assay is hepatofibrosis in rats. Nature of the assay: CCl4-induced hepatofibrosis in chronic hepatitis in rats. It is filed as in vivo, Sprague Dawley rats. The following applies: serum; 8 mg/kg, 6 weeks. As for the experimental part:
120 rats were randomly divided into 12 groups, with 10 in each group, namely, a normal control group, a model group, […] Apart from the normal control group, all rats were s.c. injected 0.3 ml of 40% solution of CC14 in oil per 100 g of body weight once every 3 days for 6 weeks. Animals in the normal control group were s.c. injected 0.3 ml/100 g body weight of oil vehicle following the same schedule as the experimental groups. First dose was doubled for all animals. Six weeks later, drugs were continuously administered to animals in each group for 6 weeks. After the administration was completed, all animals were anaesthetised with i.p. injection of 20% ethyl carbamate solution (Beijing Tongxian District Yucai Fine Chemicals). Blood was collected from abdominal aorta. Hepatic lobule tissue was removed, part of which was fixed with 10% neutral foinialin solution and made into wax blocks within 24-48 hours. […] Serum HA, LN, Pc III levels and hepatic HYP level were determined according to the respective kit instructions.

The molecule `CN(CCOc1ccc(CC2SC(=O)NC2=O)cc1)c1ccccn1` (stereo not drawn) [Rosiglitazone, reference compound] gave an HA of 88.9 ± 20.5 µg/L, an LN of 63.6 ± 16.8 µg/L and a PCIII of 26.5 ± 9.6 µg/L.
